Where two headings read alike, the source gives them in different places.
Target: human CCR5 (Homo sapiens, UniProt P51681)
Test: CCR5 signaling inhibition, aequorin calcium sensor in CHO cells, agonist human MIP-1β/CCL4
Details: CHO cells expressing human CCR5, agonist MIP-1β/CCL4, n=2
[1] = read-out: IC50, inhibition of CCR5 signaling (FIG. 1B), FIG. 1B

Protein sequences, listed by entry. Tags and fused reporters are not part of them.
UniProt P51681, whole entry: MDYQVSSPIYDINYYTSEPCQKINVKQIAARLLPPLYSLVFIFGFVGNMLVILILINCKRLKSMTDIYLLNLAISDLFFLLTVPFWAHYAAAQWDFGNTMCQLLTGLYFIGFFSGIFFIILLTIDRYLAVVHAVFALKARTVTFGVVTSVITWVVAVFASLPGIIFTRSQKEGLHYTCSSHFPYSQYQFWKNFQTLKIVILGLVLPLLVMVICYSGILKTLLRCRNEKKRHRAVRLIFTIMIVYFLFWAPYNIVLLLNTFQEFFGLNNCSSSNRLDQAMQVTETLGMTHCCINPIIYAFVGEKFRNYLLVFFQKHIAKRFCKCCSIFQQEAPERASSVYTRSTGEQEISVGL

Row | Substance | IC50 [1] [nM] | IC50 (read-out: IC50, inhibition of CCR5 signaling (FIG. 1A), FIG. 1A) [nM] | IC50 (read-out: IC50, inhibition of CCR5 signaling (FIG. 1C), FIG. 1C) [nM]
1 | cencriviroc | 51 |  | 
2 | maraviroc | 4.3 | 2.7 | 2.6
